The target of this assay is human liver microsomes (HLMs). As to conditions: read-out: Ki, HLMs; SN-38 substrate.

By Ki is commonly meant a dissociation constant, usually derived from enzyme kinetics or from competition with a known ligand.

With `CS(=O)(=O)CCNCc1ccc(-c2ccc3ncnc(Nc4ccc(OCc5cccc(F)c5)c(Cl)c4)c3c2)o1` [Lapatinib, lapatinib], the Ki came to 1600 ± 200 nM.

For the origin of these results see PMC4672351, “Drug-Drug Interaction Potentials of Tyrosine Kinase Inhibitors via Inhibition of UDP-Glucuronosyltransferases” (Scientific Reports, 2015).
